Format in all cases: cell-based
Assay [1] deals with Glutamate NMDA receptor; GRIN1/GRIN2B (Homo sapiens) (UniProt Q05586+Q13224). The assay is described as follows: Positive allosteric modulation of GluN1/GluN2B NMDAR (unknown origin) expressed in Dox-inducible cells at 125 uM measured every 5 mins by BD calcium indicator dye based-fluorescence analysis in presence of glutamate/glycine. The procedure, abridged: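 Doxycycline-induced (2 µg/mL, overnight, 500 µM ketamine) GluN2B-containing NMDAR cells, loaded with calcium dye for 50 min; compound added at 2x in 2x EC30 Glu, with saturating Gly; fluorescence recorded over 5 min. Max potentiation at 125 µM reported where no EC50 obtained; 30% denotes baseline (EC30 Glu).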

The chains behind the UniProt entries cited, without tags or fusion partners.
UniProt Q13224, whole entry, looked up: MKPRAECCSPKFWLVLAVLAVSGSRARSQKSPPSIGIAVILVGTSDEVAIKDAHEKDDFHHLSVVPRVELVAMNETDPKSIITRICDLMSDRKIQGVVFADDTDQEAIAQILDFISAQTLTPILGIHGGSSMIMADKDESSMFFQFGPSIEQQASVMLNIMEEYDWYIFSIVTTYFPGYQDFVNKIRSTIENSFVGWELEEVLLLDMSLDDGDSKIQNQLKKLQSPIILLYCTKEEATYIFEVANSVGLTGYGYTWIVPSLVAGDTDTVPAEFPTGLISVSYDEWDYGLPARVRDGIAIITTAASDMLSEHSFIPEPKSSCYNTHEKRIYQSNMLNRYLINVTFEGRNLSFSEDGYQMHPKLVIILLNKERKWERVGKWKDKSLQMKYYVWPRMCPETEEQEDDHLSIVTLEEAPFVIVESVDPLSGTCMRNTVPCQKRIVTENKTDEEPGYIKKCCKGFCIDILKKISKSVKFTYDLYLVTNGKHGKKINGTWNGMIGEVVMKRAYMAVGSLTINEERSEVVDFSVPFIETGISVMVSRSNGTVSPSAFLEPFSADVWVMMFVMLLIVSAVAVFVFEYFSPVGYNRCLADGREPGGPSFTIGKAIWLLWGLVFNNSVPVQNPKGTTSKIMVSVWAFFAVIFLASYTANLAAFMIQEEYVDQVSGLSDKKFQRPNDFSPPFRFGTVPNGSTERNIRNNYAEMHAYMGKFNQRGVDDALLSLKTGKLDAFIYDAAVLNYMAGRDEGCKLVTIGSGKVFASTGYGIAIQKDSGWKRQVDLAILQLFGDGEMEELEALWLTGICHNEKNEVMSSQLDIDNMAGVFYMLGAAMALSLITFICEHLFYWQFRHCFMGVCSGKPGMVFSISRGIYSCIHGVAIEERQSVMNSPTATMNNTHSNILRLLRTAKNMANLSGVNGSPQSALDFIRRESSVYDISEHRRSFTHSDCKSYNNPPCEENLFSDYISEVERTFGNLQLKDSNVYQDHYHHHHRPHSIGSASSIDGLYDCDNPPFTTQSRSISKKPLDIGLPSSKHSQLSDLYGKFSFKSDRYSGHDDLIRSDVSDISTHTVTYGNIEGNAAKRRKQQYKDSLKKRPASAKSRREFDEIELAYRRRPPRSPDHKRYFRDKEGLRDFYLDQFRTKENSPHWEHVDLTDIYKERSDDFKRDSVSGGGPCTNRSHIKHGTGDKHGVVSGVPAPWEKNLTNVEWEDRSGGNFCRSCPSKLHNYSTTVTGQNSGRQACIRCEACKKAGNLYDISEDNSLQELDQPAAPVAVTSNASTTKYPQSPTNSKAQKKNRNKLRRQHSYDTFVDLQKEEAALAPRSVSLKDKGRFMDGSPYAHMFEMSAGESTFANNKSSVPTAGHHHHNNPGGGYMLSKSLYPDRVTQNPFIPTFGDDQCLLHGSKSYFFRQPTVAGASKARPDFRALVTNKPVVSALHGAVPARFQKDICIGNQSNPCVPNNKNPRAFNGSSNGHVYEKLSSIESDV
UniProt Q12879, whole entry, looked up: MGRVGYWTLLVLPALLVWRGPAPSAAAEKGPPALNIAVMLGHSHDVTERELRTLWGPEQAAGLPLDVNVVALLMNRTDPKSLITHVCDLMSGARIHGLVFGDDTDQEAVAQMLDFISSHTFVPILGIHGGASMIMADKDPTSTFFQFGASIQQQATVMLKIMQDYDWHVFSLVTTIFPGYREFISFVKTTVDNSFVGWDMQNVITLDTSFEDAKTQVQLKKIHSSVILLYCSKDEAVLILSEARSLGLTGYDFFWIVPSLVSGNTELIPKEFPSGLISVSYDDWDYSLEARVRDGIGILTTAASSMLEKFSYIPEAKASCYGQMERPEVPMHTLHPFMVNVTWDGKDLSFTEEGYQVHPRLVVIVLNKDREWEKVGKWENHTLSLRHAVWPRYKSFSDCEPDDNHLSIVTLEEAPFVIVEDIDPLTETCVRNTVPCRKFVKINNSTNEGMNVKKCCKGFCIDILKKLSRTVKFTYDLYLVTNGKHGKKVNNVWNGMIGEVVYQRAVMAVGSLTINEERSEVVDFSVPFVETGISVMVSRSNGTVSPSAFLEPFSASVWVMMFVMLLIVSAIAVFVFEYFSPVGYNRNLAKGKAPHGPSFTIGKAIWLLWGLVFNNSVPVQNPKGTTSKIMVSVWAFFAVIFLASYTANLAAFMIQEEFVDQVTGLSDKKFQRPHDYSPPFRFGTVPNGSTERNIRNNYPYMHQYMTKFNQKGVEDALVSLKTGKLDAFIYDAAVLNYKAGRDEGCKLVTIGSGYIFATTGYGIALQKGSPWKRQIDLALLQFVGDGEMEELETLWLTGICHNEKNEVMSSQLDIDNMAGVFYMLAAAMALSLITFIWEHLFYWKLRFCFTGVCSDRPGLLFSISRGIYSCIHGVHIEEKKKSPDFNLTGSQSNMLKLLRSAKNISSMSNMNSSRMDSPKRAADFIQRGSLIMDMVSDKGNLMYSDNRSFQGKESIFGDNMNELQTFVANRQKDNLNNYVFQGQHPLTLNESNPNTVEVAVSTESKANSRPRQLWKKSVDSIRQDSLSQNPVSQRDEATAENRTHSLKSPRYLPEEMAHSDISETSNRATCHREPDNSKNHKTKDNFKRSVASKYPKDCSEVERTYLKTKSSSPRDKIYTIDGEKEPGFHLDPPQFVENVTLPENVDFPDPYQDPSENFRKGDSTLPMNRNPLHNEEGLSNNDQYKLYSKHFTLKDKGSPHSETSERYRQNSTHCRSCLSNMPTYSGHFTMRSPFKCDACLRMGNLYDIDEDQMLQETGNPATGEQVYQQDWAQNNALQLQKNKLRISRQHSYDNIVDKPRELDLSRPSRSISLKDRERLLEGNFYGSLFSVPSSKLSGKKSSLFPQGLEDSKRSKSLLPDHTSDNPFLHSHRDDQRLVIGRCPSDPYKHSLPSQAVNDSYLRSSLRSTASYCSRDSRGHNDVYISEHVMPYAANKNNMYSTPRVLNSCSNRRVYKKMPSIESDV

The target of assay [2] is Glutamate NMDA receptor; GRIN1/GRIN2A (Homo sapiens, UniProt Q05586+Q12879). Kind of assay: Positive allosteric modulation of GluN1/GluN2A NMDAR (unknown origin) expressed in Dox-inducible cells at 125 uM measured every 5 mins by BD calcium indicator dye based-fluorescence analysis in presence of glutamate/glycine. The procedure, abridged: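 GluN2A-containing NMDAR cell line, harvested, seeded, doxycycline 2 µg/mL overnight with 500 µM ketamine for protection, then washed and loaded with calcium dye for 50 min. Compound added at 2x concentration in 2x EC30 Glu (EC30 set daily from Glu dose-response); saturating Gly throughout; fluorescence recorded over 5 min. 10-point 1:2 dilutions; EC50 as geometric mean of ≥2 determinations; max potentiation at 125 µM where no EC50, baseline 30% (EC30 Glu).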

For the next assay, the species on record is Homo sapiens. The assay is described as follows: Selectivity ratio of EC50 for human GluA2 AMPAR flop isomer to EC50 for GluN1/GluN2A NMDAR (unknown origin) expressed in Dox-inducible cells.

%max and Ratio EC50 data for one compound are collected here from ChEMBL document CHEMBL3797125, “Discovery of GluN2A-Selective NMDA Receptor Positive Allosteric Modulators (PAMs): Tuning Deactivation Kinetics via Structure-Based Design” (J Med Chem, 2016).

Regarding `N#C[C@@H]1C[C@H]1c1c(C(F)(F)F)sc2nc(Cn3nc(C(F)(F)F)cc3Cl)cc(=O)n12`, the %max in assay [1] was determined as 49%; in assay [2], 152%. Further, in the assay listed under Homo sapiens, the Ratio EC50 is greater than 250.
